Data as given in patent US9546152B2 (MERCK SHARP & DOHME CORP., priority 2012, dated 2017).

Chains of the proteins cited; added tags and fusions are not shown.
UniProt P56718, whole entry: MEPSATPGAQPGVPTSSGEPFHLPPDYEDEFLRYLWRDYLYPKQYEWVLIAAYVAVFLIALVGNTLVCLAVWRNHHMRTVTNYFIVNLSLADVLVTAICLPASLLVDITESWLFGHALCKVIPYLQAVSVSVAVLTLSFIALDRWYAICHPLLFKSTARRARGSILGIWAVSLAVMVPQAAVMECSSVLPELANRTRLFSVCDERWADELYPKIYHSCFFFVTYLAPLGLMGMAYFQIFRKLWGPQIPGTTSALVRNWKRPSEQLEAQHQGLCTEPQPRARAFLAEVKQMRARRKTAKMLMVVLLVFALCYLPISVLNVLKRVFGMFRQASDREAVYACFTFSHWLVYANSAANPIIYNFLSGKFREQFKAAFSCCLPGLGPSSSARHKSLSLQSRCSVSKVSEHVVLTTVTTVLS

Target: rat orexin-1 receptor (Rattus norvegicus (Rat), UniProt P56718)
Experiment: FLIPR Ca2+ Flux Assay, orexin-1 receptor
Assay type: cell-based
Conditions: CHO cells expressing the rat orexin-1 receptor; agonist 70 pM Ala-6,12 human orexin-A; read-out: hOX1R FLIPR IC50
Method: In a typical experiment the OX1 and OX2 receptor antagonistic activity of the compounds of the present invention was determined in accordance with the following experimental method. For intracellular calcium measurements, Chinese hamster ovary (CHO) cells expressing the rat orexin-1 receptor or the human orexin-2 receptor, are grown in Iscove's modified DMEM containing 2 mM L-glutamine, […], 1% hypoxanthine-thymidine supplement, 100 U/ml penicillin, 100 μg/ml streptomycin and 10% heat-inactivated fetal calf serum (FCS). The cells are seeded at 20,000 cells/well into Becton-Dickinson black 384-well clear bottom sterile plates coated with poly-D-lysine. […] Within the Fluorescent Imaging Plate Reader (FLIPR, Molecular Devices), test compounds are added to the plate in a volume of 25 μl, incubated for 5 min and finally 25 μl of agonist is added. Fluorescence is measured for each well at 1 second intervals for 5 minutes and the height of each fluorescence peak is compared to the height of the fluorescence peak induced by 70 pM Ala-6,12 orexin-A with buffer in place of antagonist. […] Alternatively, compound potency can be assessed by a radioligand binding assay (described in Bergman et. al. Bioorg. Med. Chem. Lett. 2008, 18, 1425-1430) in which the inhibition constant (Ki) is determined in membranes prepared from CHO cells expressing either the OX1 or OX2 receptor. […]

Row | Structure (SMILES) | IC50
1 | COc1ccc(C(=O)N2C[C@H](Oc3nccc(C#N)c3C)CC[C@H]2C)c(C2CC2)n1 [Example 5, 2-({(3R,6R)-1-[(2-cyclopropyl-6-methoxypyridin-3-yl)carbonyl]-6-methylpiperidin-3-yl}oxy)-3-methylpyridine-4-carbonitrile] | > 10 µM
2 | COc1ccc(C(=O)N2C[C@H](Oc3nccc(C#N)c3C)CC[C@H]2C)c(-c2ccncc2)n1 [Example 48, 2-({(3R,6R)-1-[(6-methoxy-2,4′-bipyridin-3-yl)carbonyl]-6-methylpiperidin-3-yl}oxy)-3-methylpyridine-4-carbonitrile] | > 10 µM
